This experiment concerns the target DPPIV (Homo sapiens, UniProt P27487). Briefly: Inhibition of peptidase activity of purified DPPIV, substrate H-Gly-Pro-pNA. The experiment is classed as biochemical. Set-up: His tag; made in house; host or cells: transfected COS-7 cells; solubilised with 1% Triton X-100. Particulars: inhibitor 4 mM; 1 mM H-Gly-Pro-pNA, pH 7.4. As for the experimental part:
Cells (1×10^7) expressing each protein were sonicated in native buffer (50 mM sodium phosphate, 300 mM NaCl), then treated with 700 U DNAse for 20 min at room temperature. DPPIV is expressed at the cell surface, so 1% Triton X-100 was used to solubilize DPPIV/V5/His. Insoluble material was removed by centrifugation. The supernatant was incubated with 1 mL Talon® Metal Affinity Resin (Clontech) following the manufacturer's instructions for a batch/gravity flow procedure. The resin was washed with 50 mM sodium phosphate, containing 300 mM NaCl and 5 mM imidazole, and proteins were eluted using the same buffer containing 150 mM imidazole. Enzyme activity was used to monitor eluted fractions.
Enzyme assays were performed as described previously. Either clarified cell extract from 1×10^4 sonicated COS-7 cells or purified protein derived from 1×10^5 cells was incubated with substrate in 70 μL phosphate buffer, pH 7.4, for 30 min at 37° C., except where otherwise indicated. The specific DPPIV substrates, Gly-Pro-toluenesulfonate, H-Gly-Pro-p-nitroanilide (NA)/HCl (Sigma, St Louis, Mo., USA) and Gly-Pro-7-amino-4-trifluromethylcoumarin (Calbiochem, San Diego, Calif., USA) were tested. […]

Sequences of proteins named here, by UniProt entry; tags and fusion partners are left off.
UniProt P27487, whole entry: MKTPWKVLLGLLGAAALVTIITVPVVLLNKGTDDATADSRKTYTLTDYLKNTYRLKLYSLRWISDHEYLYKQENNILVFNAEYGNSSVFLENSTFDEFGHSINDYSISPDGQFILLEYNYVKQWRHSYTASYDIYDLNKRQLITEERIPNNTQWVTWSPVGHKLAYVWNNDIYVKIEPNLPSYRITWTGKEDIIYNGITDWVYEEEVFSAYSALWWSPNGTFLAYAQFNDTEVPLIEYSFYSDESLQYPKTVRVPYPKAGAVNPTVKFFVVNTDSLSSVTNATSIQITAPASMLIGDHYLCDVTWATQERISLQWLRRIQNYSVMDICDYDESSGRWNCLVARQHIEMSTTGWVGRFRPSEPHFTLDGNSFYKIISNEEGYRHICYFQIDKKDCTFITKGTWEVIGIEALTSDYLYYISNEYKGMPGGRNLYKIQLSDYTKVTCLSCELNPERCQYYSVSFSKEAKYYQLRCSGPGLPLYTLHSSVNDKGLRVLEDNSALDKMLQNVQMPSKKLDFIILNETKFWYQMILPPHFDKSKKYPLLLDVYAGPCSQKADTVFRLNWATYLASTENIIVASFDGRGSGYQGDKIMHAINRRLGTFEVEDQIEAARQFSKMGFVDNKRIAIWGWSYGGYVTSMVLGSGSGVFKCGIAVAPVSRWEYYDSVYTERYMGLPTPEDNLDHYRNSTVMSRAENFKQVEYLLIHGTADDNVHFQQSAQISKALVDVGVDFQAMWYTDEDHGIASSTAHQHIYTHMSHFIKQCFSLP

`NCCc1ccc(S(=O)(=O)F)cc1` [AEBSF, 4-(2-aminoethyl)benzenesulfonylfluoride]: the “Residual activity (% of control)” value is reported as 52 % of control.

The values above are taken from US7148338B2, “Nucleic acids encoding dipeptidyl peptidases” (The University of Sydney, priority 1999, dated 2006).
